# Assay: Ratio of lethal conc. under aerobic to hypoxic condition in HT-29 cells
# Assay type: functional
# Outline: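 HT-29 hypoxic selectivity. Aerobic and hypoxic LC99 values (concentration cutting clonogenic survival by 2 log units) come from the log-linear portion of each survival curve after 4-h drug treatment, assayed in duplicate. The ratio is aerobic LC99 over hypoxic LC99.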
row,SMILES,Ratio
1,NP(=O)(OCc1ccc([N+](=O)[O-])s1)N(CCBr)CCBr (configuration not stated),7.8
2,NP(=O)(OCc1ccc([N+](=O)[O-])o1)N(CCBr)CCBr (configuration not stated),8.2

# From ChEMBL document CHEMBL1133734, “Synthesis and evaluation of nitroheterocyclic phosphoramidates as hypoxia-selective alkylating agents” (2000)
